System: 3-day-old mouse pups
Assay: Effect of light exposure on metalloporphyrin-treated newborn mice (chemical toxicity and phototoxicity)
Settings: 3.75 μmol ZnBG/kg BW, 3-day-old pups exposed to light
Protocol: FIG. 2 includes three panels ((A), (B), and (C)), showing the experimental setup for phototoxicity studies. 3-day-old pups (magnified in panel (A)) were given vehicle or Mp IP at doses ranging from 3.75 to 30 μmol/kg body weight (BW) and then exposed for 3 hours to fluorescent light consisting of 2 cool white and 1 blue tubes (as shown in panel (B)) emitting an irradiance of 35.0±1.0 μW/cm^2/nm as measured by a BiliBlanket II Meter (as depicted in panel (C)).
Effect of light exposure on metalloporphyrin-treated newborn mice. […] Pups were either kept in the dark (controls) or exposed to fluorescent light composed of two cool white tubes (F20T12cW) and one blue (TL20W/52) tube for 3 hours (FIG. 2).

zinc bis glycol porphyrin [ZnBG]
survival: 100%

Reference: patent US20150224202A1, “FORMULATIONS AND USES FOR MICROPARTICLE DELIVERY OF ZINC PROTOPORPHYRINS” (priority 2014, published 2015)
